# Laboratory results: patent US6593140B1, “Animal cell culture” (Lonza Group, AG, priority 1992, dated 2003)
# Test system: mouse hybridoma cell line
# Conditions: reciprocal shaking platform 120 rpm, 3 days; presence or absence of transferrin; FIG. 2B
# Method: A mouse hybridoma cell line, previously subcultured in serum free medium containing human transferrin, was centrifuged and resuspended at 1.5×10^5 cells/ml in either transferrin-free or transferrin-containing serum-free medium. […] The flasks were gassed in 5% CO2—95% air atmosphere, sealed and incubated either static or on an orbital reciprocal shaking platform (120 rpm) at 36.5° C. for 3 days. Samples were then removed and cell concentration was determined by haemocytometry.
substance,measurement,value
ferric ammonium citrate,toxic concentration in agitated culture,> 1 mg/L
